Experiment: Slurry experiments of Form H in water/DMSO (form map)
Settings: 60° C., 1:1 (50% water) to 1:4 DMSO:Water (80% water)

form stability in water/DMSO: favored
SMILES: C[C@@H]1CC[C@@H](Nc2nc(NC(C)(C)C)ncc2C(N)=O)C[C@H]1O [Form A, 2-(tert-butylamino)-4-((1R,3R,4R)-3-hydroxy-4-methylcyclohexylamino)-pyrimidine-5-carboxamide]

From US11241430B2, “Solid forms of 2-(tert-butylamino)-4-((1R,3R,4R)-3-hydroxy-4-methylcyclohexylamino)-pyrimidine-5-carboxamide, compositions thereof and methods of their use” (Signal Pharmaceuticals, LLC, priority 2014, dated 2022)
